This test deals with 5-HT transporter (Rattus norvegicus, UniProt P31652). In words: Inhibition of 3H-5-HT uptake in CV-1 cells transfected with the 5-HT transporter cDNA. The note with it: for inhibition of 5-HT uptake (in words): CV-1 cells transfected with 5HTT cDNA. The test is classed as cell-based.

Protein sequences, listed by entry. Tags and fused reporters are not part of them.
UniProt P31652, whole entry: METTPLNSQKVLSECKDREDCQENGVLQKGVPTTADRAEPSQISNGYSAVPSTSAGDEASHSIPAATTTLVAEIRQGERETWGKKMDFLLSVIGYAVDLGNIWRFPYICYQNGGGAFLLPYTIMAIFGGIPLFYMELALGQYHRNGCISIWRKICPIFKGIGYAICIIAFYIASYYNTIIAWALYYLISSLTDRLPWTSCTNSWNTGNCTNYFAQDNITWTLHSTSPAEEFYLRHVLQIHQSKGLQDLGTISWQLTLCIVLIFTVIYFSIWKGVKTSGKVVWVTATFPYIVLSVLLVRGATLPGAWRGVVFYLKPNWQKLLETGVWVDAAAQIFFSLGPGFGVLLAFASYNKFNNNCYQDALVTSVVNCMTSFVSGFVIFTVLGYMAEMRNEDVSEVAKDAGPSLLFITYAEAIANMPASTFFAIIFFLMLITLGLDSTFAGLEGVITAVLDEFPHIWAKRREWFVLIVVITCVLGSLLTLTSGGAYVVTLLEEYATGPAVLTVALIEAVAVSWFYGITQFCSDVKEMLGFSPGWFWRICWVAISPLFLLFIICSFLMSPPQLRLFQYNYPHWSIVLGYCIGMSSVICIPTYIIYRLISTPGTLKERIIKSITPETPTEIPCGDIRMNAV

Structures are written as SMILES.

Consider `CCN[C@@H](C)Cc1cccc(C(F)(F)F)c1` [S(+)fenfluramine], for which the inhibitory constant (Ki) (as a rule, a measure of affinity in units of concentration, obtained from inhibition or displacement) is 129 ± 28 nM and the “inhibition of 5-HT uptake (in words)” value is “also blocks uptake”.

Compound `COC(=O)[C@H]1[C@@H](OC(=O)c2ccccc2)C[C@@H]2CC[C@H]1N2C` [cocaine] had a Ki of 1080 ± 150 nM.

For `Fc1ccc([C@@H]2CCNC[C@H]2COc2ccc3c(c2)OCO3)cc1` [paroxetine], the affinity corresponds to a Ki of 3.1 ± 0.8 nM and the “inhibition of 5-HT uptake (in words)” value is reported as “potently inhibited”.

`COC(=O)[C@H]1[C@H]2C[C@@H]3c4[nH]c5cc(OC)ccc5c4CCN3C[C@H]2C[C@@H](OC(=O)c2cc(OC)c(OC)c(OC)c2)[C@@H]1OC` [reserpine]: the Ki is greater than 10000 nM and the “inhibition of 5-HT uptake (in words)” value is “ineffective at blocking 5-HT uptake”.

The values are drawn from patent US5552308A, “CDNA clone of a rat serotonin transporter and protein encoded thereby” (priority 1991, dated 1996).
